Values quoted from earlier work in patent US20090306093A1, “METHOD FOR TREATING PATIENT HAVING BENIGN PROSTATE HYPERPLASIA” (KAOHSIUNG MEDICAL UNIVERSITY, priority 2008, published 2009).

Protein sequences, listed by entry. Tags and fused reporters are not part of them.
UniProt P35368, whole entry: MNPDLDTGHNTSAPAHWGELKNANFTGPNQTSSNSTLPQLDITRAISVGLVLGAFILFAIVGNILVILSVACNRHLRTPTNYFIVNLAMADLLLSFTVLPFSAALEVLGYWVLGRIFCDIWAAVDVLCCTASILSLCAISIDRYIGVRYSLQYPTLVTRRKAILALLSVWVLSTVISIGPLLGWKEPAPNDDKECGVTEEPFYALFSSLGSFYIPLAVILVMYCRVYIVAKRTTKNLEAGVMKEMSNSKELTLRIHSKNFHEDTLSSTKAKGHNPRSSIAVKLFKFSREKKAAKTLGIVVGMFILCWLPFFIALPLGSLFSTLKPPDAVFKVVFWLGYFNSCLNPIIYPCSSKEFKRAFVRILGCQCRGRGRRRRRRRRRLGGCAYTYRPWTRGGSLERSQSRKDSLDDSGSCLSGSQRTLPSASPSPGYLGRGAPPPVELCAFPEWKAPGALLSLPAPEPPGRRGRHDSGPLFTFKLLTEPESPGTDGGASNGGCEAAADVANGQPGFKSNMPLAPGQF

Target: a1B-adrenergic receptor (Homo sapiens, UniProt P35368)
Conditions: data from the reference; cited from earlier work

COc1cc2nc(N3CCN(C(=O)C4COc5ccccc5O4)CC3)nc(N)c2cc1OC (stereo not shown) [doxazosin]
Receptor Affinity (pKi) a1B: 8.98
